Assay results reported in US20260384438A1, “PYRROLOPYRIMIDINE CARBOXAMIDES” (published 2026).

Amino acid sequences for entries named in this document (tags omitted).
UniProt P50613, whole entry: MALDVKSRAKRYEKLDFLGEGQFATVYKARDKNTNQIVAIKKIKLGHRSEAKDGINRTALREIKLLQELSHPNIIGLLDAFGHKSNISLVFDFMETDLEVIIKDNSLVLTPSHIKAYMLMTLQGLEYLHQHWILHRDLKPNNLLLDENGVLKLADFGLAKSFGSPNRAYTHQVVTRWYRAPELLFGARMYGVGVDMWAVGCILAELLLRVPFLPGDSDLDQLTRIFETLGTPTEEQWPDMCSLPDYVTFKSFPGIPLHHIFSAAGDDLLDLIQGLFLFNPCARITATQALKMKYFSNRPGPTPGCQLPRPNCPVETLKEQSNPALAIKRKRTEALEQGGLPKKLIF
UniProt Q8TF76, whole entry: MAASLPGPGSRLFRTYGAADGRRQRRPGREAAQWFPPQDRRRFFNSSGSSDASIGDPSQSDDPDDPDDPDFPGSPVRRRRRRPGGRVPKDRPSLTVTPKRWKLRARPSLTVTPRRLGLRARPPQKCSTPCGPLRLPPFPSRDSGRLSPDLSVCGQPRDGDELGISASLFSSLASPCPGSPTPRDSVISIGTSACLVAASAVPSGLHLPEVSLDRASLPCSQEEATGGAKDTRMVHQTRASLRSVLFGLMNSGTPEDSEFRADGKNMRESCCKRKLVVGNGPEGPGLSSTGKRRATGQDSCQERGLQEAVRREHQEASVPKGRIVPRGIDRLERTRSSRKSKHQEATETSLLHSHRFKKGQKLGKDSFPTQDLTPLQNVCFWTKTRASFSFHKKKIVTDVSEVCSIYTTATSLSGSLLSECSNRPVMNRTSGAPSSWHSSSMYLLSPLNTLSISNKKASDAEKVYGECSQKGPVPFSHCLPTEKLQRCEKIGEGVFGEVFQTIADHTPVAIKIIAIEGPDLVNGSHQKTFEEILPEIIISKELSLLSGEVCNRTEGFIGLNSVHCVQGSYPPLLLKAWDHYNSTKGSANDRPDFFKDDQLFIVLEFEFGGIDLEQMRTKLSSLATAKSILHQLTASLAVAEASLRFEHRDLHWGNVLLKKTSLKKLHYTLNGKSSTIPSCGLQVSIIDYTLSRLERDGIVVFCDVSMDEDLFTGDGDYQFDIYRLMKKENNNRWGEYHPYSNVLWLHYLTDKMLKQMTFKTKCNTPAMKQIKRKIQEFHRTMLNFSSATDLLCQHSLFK
UniProt Q5S007, whole entry: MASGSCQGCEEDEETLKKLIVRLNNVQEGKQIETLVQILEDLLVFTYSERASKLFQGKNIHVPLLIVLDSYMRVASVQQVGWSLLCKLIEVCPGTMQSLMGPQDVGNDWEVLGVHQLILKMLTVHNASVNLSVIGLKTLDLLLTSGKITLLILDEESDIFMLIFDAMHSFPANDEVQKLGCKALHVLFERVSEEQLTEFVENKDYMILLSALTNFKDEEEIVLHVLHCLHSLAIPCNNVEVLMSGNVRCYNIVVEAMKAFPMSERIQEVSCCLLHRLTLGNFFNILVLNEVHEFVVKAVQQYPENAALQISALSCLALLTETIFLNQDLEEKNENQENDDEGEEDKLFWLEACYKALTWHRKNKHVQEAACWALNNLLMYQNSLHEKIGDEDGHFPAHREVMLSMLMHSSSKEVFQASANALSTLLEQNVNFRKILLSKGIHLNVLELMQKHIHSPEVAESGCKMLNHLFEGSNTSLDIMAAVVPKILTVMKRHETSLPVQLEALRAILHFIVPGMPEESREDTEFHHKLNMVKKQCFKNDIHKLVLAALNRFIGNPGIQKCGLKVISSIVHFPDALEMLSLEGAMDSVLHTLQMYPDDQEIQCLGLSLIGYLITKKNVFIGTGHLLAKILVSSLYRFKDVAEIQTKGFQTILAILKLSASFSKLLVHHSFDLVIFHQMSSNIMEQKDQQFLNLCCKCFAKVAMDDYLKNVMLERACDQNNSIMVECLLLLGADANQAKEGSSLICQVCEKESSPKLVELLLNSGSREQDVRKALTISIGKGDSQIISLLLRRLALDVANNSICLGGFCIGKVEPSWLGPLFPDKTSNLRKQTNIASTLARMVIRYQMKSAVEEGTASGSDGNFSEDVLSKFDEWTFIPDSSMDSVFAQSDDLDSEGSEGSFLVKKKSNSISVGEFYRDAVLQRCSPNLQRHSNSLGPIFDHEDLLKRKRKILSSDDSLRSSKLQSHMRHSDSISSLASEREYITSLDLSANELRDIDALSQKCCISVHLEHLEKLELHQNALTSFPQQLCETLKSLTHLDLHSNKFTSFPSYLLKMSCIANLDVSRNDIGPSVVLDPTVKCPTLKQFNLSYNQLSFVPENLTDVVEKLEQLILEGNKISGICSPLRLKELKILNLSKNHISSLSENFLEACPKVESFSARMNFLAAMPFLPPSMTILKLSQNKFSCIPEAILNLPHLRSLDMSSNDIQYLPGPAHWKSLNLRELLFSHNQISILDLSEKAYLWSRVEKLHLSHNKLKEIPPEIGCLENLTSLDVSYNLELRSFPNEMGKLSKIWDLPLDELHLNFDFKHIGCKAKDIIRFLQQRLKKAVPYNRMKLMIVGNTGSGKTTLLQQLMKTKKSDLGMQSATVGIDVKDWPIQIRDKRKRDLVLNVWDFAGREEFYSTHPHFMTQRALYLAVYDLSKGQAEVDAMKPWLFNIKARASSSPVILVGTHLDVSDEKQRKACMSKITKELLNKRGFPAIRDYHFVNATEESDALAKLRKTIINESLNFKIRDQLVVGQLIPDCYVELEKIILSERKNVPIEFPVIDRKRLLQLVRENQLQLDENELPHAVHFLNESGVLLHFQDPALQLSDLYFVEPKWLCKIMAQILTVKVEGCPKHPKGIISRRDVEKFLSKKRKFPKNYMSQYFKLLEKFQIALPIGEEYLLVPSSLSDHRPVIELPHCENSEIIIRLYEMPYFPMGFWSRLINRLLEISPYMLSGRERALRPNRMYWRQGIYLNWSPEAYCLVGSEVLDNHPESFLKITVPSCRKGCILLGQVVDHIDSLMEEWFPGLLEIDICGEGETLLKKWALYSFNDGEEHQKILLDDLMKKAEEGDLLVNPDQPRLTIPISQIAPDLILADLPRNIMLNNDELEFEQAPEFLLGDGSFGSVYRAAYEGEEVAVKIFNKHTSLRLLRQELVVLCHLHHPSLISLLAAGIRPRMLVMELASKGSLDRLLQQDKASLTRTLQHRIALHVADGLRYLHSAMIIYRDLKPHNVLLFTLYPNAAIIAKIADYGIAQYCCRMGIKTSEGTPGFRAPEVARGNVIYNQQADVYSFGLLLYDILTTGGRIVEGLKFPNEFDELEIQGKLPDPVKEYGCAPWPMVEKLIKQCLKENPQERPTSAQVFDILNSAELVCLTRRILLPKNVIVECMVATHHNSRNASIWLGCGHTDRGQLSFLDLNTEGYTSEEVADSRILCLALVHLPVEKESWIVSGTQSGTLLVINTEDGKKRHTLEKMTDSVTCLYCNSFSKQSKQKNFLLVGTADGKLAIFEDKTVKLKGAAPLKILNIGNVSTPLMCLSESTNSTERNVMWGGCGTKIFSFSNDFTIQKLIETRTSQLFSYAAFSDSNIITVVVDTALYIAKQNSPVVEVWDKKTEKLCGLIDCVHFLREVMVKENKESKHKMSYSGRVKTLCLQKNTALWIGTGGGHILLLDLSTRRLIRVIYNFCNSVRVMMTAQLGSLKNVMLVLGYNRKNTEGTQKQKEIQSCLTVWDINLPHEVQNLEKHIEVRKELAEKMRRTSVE
UniProt P48736, whole entry: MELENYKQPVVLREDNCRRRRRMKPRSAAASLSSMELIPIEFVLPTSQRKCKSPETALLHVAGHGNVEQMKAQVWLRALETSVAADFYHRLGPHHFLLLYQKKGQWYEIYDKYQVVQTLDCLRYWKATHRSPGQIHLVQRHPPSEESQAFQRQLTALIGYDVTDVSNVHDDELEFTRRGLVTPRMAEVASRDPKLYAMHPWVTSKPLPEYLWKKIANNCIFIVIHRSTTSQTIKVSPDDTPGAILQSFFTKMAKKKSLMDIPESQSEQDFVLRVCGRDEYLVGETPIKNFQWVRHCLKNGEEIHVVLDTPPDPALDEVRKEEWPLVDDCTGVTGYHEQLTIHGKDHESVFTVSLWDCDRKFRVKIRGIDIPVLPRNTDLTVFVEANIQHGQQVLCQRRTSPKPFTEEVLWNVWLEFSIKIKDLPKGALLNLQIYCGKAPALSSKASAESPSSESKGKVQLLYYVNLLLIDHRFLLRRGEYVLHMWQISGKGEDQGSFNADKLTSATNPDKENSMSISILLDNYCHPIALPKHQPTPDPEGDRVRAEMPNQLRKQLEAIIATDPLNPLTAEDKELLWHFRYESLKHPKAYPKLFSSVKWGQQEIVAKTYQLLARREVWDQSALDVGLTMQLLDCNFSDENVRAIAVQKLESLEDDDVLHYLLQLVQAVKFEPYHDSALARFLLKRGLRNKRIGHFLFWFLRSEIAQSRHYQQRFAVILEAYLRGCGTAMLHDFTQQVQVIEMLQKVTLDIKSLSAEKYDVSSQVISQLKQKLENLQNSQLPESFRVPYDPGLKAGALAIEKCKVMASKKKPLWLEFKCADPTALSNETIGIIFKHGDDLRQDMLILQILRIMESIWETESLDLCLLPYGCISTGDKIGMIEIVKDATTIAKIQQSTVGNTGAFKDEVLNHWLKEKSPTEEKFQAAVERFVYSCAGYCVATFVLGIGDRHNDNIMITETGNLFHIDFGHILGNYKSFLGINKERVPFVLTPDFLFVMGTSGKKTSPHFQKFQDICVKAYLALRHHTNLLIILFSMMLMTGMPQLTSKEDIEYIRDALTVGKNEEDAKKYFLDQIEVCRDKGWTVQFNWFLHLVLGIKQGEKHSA
UniProt O14986, whole entry: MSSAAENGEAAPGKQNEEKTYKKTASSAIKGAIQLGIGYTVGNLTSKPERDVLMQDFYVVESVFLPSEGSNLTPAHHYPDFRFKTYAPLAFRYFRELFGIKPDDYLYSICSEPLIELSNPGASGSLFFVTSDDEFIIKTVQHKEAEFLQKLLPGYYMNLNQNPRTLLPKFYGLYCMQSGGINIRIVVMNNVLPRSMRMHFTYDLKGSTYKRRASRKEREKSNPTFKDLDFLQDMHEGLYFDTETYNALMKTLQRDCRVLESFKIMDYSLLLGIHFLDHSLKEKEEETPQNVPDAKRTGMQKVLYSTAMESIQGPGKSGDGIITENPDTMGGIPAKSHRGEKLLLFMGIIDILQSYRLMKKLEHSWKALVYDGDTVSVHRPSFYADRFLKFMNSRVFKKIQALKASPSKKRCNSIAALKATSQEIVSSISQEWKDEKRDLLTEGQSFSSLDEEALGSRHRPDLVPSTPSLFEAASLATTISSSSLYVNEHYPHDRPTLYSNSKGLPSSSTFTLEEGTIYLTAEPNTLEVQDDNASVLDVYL
UniProt Q99755, whole entry: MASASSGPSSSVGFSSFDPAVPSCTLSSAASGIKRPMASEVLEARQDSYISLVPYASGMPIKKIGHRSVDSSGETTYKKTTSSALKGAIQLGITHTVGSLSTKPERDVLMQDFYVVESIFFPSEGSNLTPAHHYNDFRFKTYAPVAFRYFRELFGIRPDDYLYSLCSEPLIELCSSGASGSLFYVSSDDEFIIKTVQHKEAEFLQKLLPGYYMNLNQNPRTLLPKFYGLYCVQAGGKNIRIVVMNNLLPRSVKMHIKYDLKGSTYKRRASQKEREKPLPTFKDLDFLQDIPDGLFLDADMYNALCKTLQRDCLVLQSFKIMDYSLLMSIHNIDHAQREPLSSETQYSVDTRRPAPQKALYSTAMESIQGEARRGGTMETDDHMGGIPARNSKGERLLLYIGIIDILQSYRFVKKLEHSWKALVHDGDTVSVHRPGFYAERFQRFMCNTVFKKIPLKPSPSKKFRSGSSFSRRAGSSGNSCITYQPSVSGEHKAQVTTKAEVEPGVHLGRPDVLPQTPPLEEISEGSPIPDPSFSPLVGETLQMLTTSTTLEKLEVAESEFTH
UniProt Q9NYA1, whole entry: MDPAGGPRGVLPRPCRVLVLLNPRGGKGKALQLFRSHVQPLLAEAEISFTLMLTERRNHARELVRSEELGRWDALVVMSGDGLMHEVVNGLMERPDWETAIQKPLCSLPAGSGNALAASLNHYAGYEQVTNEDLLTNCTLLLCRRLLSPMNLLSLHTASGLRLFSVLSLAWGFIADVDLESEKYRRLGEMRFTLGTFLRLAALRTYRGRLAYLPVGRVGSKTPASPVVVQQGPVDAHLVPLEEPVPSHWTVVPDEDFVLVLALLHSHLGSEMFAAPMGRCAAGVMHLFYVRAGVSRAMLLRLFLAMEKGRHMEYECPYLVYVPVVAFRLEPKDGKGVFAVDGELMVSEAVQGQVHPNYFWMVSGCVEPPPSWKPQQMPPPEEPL
UniProt P51948, whole entry partner: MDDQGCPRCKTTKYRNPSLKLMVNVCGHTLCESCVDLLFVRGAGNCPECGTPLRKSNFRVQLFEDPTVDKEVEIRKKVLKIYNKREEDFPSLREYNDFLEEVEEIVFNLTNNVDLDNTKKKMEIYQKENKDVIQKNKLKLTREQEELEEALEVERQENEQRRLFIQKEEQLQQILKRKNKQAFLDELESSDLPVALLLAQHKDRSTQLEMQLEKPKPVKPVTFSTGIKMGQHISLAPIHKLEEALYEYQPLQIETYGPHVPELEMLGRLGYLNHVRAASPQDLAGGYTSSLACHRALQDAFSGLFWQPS

Legend:
[1] = system: OVCAR3 cells; assay: Cellular proliferation (Hoechst staining), OVCAR3; settings: read-out: OVCAR3 GI50; CCNE1-amplified, 4 days
[2] = In vitro biotransformation in minipig hepatocytes; settings: 5 μM, 180 min
[3] = biological target: CDK7/cyclin H/MNAT1 (Homo sapiens, UniProt P50613); assay: Kinase profiling, Adapta; settings: 1 μM, KmATP
[4] = biological target: GSG2 (Haspin) (Homo sapiens, UniProt Q8TF76); assay: Kinase profiling, Adapta; settings: 1 μM, KmATP
[5] = biological target: LRRK2 Hu Phos (Homo sapiens, UniProt Q5S007); assay: Kinase profiling, Adapta; settings: 1 μM, KmATP
[6] = biological target: PIK3C2A (Homo sapiens, UniProt O00443); assay: Kinase profiling, Adapta; settings: 1 μM, KmATP
[7] = biological target: PIK3CB (Homo sapiens, UniProt P42338); assay: Kinase profiling, Adapta; settings: 1 μM, KmATP
[8] = biological target: PIK3CG (p110 gamma) (Homo sapiens, UniProt P48736); assay: Kinase profiling, Adapta; settings: 1 μM, KmATP
[9] = biological target: PIP4K2A (Homo sapiens, UniProt P48426); assay: Kinase profiling, Adapta; settings: 1 μM, KmATP
[10] = biological target: PIP5K 1B (Homo sapiens, UniProt O14986); assay: Kinase profiling, Adapta; settings: 1 μM, KmATP
[11] = biological target: PIP5K1A (Homo sapiens, UniProt Q99755); assay: Kinase profiling, Adapta; settings: 1 μM, KmATP
[12] = biological target: SPHK1 (Homo sapiens, UniProt Q9NYA1); assay: Kinase profiling, Adapta; settings: 1 μM, KmATP
[13] = biological target: SPHK2 (Homo sapiens, UniProt Q9NRA0); assay: Kinase profiling, Adapta; settings: 1 μM, KmATP

Cc1nc(C(F)(F)F)c2c(C(N)=O)c(N)n(-c3c(C)ccc(O)c3C)c2n1 (single isomer, unassigned)
GI50 [1]: 2.21 µM | Glucuronidation [2]: M (Major (>10%)) | Oxidation [2]: m (minor (>1% but ≤10%)) | MEAN INHIBITION [3]: 18.174% | MEAN INHIBITION [4]: 6.522% | MEAN INHIBITION [5]: −0.583% | MEAN INHIBITION [6]: −0.965% | MEAN INHIBITION [7]: −6.281% | MEAN INHIBITION [8]: −15.516% | MEAN INHIBITION [9]: 0.823% | MEAN INHIBITION [10]: −11.784% | MEAN INHIBITION [11]: −13.685% | MEAN INHIBITION [12]: −4.651% | MEAN INHIBITION [13]: −6.141%
